Ki and IC50 data for two molecules are collected here from patent publication US20060189530A1 (Bayer Corporation, priority 1996, published 2006).

The chains behind the UniProt entries cited, without tags or fusion partners. Where a name states a change or a piece, a line headed by the entry shows the natural chain unless it says otherwise.
UniProt Q63447: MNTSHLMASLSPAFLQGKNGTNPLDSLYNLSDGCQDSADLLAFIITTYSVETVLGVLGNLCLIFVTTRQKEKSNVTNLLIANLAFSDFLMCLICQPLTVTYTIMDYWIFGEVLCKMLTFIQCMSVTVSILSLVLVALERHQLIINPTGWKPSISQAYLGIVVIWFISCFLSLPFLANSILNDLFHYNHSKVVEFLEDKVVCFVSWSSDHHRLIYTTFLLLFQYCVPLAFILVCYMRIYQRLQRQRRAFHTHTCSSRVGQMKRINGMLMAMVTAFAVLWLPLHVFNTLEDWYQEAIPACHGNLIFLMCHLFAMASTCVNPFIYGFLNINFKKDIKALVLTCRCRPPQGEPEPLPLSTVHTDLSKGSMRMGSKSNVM

As usually defined, the Ki is a measure of affinity in units of concentration, obtained from inhibition or displacement. A word on the IC50: it is the concentration needed to halve the response being measured. The low end stands for inhibition by little substance, the high end for a need for much substance.

For assay [1], the target named is T1, rat NPY Y5 receptor, Y861 clone (rat, UniProt Q63634 1-445).
T1 construct: Same coding region as Y555; also called RAT Y861 Clone
T1 sequence: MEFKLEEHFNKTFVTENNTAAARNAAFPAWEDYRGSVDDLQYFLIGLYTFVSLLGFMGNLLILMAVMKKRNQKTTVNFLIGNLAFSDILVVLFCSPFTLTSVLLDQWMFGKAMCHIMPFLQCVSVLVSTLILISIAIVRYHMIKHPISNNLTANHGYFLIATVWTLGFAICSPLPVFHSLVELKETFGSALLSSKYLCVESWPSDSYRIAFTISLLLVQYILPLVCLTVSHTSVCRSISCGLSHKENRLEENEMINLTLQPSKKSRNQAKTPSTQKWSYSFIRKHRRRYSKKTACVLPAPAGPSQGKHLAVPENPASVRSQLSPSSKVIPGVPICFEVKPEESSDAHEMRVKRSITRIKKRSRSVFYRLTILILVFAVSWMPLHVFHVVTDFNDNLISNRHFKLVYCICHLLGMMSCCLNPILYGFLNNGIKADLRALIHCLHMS
The experiment in a line: [125I]PYY competition, membranes of stable 293S clone 293S.Y861.2. The text has this: (§1) All other peptides were purchased from either Peninsula (Belmont, Calif.) or Bachem (Torrance, Calif.).

The target of the next assay is T2, Rat Y4/PP1 (clone) (rat, UniProt Q63447 1-375).
T2 construct: Protein preparation of the cloned receptor; also called rat Y4/PPI; rat Y4/PP1 receptor
The experiment in a line: rat [125I]PP competition, rat Y4/PP1 clone.

Assay [2] deals with T3, rat NPY Y5 receptor, Y555 clone (rat, UniProt Q63634 1-445).
T3 construct: Allelic variant of 6B (proline to leucine in the first transmembrane domain); same coding region as Y861; assayed as membranes of transiently transfected COS-7 cells; also called RAT Y555 Clone
T3 sequence: T1 sequence
The experiment in a line: [125I]PYY competition, membranes of transiently transfected COS-7 cells.
Text: as §1

The target of assay [3] is T4, rat NPY Y5 receptor, 6B clone (rat, UniProt Q63634 1-445).
T4 construct: 445 amino acid protein; assayed as membranes of transiently transfected COS-7 cells; also called RAT 6B Clone; Y217.24.13.6B clone
T4 sequence: T1 sequence with L61P
Described as above.
Text: as §1

Assay [4] concerns the target T1, rat NPY Y5 receptor, Y861 clone. The description is as above.
Text: as §1

Changes are numbered by the printed parent chain.

B1: p(18-36)NPY (peptide, UniProt P01304 27-45, looked up)
peptide: ARYYSALRHYINLITRQRY
modifications: not fully specified
notes: range 18-36; Range counts on the mature peptide
As for B1, the Ki in assay [1] turned out to be 61 nM. This molecule showed an IC50 in the assay with Rat Y4/PP1 (clone) of 159 nM.

B2: r(13-36)NPY (peptide, UniProt P07808 42-65, looked up)
peptide: PAEDMARYYSALRHYINLITRQRY
modifications: not fully specified
notes: range 13-36; it may be a misprint for r(13-36)PYY (rat NPY is elsewhere written r/h)
For B2, in assay [2], the IC50 is 73 nM. The inhibition constant Ki in assay [3] is 11 nM; in assay [4] it was 86 nM.
